Measured values taken from PMC10352258.

Protein sequences, listed by entry. Tags and fused reporters are not part of them. Residues count along the entry.
UniProt O00560, 2-298 limits assumed: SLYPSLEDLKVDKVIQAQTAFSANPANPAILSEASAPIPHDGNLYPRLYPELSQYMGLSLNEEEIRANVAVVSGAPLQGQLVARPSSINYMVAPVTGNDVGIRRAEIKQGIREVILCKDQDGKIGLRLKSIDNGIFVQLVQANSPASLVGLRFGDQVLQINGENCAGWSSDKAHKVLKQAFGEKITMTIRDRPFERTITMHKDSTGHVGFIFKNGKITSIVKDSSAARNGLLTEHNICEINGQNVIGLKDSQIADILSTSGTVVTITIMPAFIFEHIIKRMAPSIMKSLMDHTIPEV
UniProt O00560, 2-298 F213A/K214A/T219A limits assumed: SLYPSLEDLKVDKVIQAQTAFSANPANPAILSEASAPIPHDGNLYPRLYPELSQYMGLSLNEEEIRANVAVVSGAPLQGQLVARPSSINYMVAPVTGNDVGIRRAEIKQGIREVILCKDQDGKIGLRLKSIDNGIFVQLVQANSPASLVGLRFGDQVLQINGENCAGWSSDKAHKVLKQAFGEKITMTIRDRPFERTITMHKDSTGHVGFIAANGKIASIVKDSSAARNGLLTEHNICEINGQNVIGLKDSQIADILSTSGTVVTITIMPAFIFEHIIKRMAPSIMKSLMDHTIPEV

Legend:
[1] = target: SDCBP (syndecan binding protein) (Homo sapiens, UniProt O00560); experiment: SPR (Biacore X100, SDCBP immobilized on CM7 chip)
[2] = target: SDCBP (syndecan binding protein) (Homo sapiens, UniProt O00560, F213A/K214A/T219A); experiment: SPR (Biacore X100); binding nearly lost in the mutant

Kd [1]: 0.63 µM
Kd [2]: 1800 µM
Structure (SMILES): CC(C)c1ccc(CN(Cc2ccc(F)cc2)Cc2nc(C(=O)NCCc3ccccn3)co2)cc1
